The values that follow are results of earlier work, collected in patent US20150342921A1, “METFORMIN-ORLISTAT COMPOSITIONS” (LANDSTEINER SCIENTIFIC S.A. DE C.V., priority 2012, published 2015).

Each structure is given as a SMILES string.

For this data set the following is noted: in vivo; cited from earlier work.

`CN(C)C(=N)N=C(N)N` [Metformin]: the Blood protein link result is “insignificant” and the “Metabolism by the liver” value is given as “not metabolized by the liver”.
